Reference: US5011854A, “Hydroxamic acid derivatives and use thereof in combatting lipoxygenase-mediated diseases” (Kyowa Hakko Kogyo Co. Ltd., priority 1987, dated 1991)

Biological target: T1, 5-lipoxygenase (Rattus norvegicus, UniProt P12527)
T1 construct: rat basophilic leukemia cells (RBL-1, ATCC No. CRL 1378) were used as the 5-lipoxygenase source; endogenous in cells; host or cells: RBL-1 (rat basophilic leukemia, ATCC CRL 1378)
T1 sequence (P12527 1-673): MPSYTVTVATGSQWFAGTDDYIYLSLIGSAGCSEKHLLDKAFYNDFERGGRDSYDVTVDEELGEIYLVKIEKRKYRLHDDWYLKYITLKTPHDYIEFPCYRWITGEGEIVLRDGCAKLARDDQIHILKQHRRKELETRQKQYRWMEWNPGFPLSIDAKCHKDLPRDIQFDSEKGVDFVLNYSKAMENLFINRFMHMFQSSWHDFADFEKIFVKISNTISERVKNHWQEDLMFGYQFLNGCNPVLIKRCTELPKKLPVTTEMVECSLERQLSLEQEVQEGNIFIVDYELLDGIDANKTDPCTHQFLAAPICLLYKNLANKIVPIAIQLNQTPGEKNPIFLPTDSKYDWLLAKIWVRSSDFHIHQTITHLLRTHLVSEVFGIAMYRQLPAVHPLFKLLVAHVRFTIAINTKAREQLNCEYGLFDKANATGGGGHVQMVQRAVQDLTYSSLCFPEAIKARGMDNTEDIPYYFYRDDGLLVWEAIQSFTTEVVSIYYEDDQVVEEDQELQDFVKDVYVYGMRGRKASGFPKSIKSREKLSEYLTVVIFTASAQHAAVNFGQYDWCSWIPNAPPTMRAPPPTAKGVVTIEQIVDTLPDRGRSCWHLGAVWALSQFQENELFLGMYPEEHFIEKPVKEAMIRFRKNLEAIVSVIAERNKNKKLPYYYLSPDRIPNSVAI
Test: 5-Lipoxygenase inhibiting activity (Test Example 2, [14C]-arachidonic acid, TLC)
Type: biochemical
Conditions: RBL-1 cells as enzyme source; 27 μM [14C]-arachidonic acid; pH 7.4; 37° C., 5 min; TLC/scintillation; read-out: Inhibitory Activity IC50, 5-Lipoxygenase
Procedure: The compounds listed in Table 3 were tested for their lipoxygenase inhibiting activity by the following methods:
(a') 5-Lipoxygenase inhibiting activity
Essentially, the same method described in the above (a) was used. Thus, rat basophilic leukemia cells (RBL-1, ATCC No. CRL 1378) were used as the 5-lipoxygenase source. These cells were contacted with the test compound in 30 μl of 0.17 M Tris-hydrochloride buffer (pH 7.4) containing […] calcium chloride, 3.3 mM adenosine triphosphate and 1 mM glutathione at 37° C. for 5 minutes. Then, 25 μl of 27 μM [^14 C]-arachidonic acid was added and the enzymatic reaction was allowed to proceed at 37° C. for 5 minutes. To the reaction mixture was added 50 μl of ethyl acetate/methanol/0.2 M citric acid (30/4/1), and the whole mixture was stirred. The reaction product extracted into the ethyl acetate layer was separated by silica gel thin layer chromatography [Merck Art 5631: developing solvent; petroleum ether/ethyl ether/acetic acid (50/50/1)]. The site of the product [^14 C]-5-hydroxy-6,8,11,14-eicosatetraenoic acid was detected by autoradiography, the gel portion corresponding to the site was scraped off and assayed for ^14 C using a liquid scintillation counter, and the yield of the product was determined. […]

An IC50 of 6.5 µM was found for `Cl.NC1=NN(c2cccc(C(F)(F)F)c2)CC1` [BW-755C, 3-amino-1-(3-trifluoromethylphenyl)-2-pyrazoline hydrochloride, reference compound] in this work.
